Results published in patent EP2330125A2 (priority 2005, dated 2007).

Target: calcitonin receptor
Conditions: read-out: Receptor Binding Assay CT

^29βAla-βAla-Exendin(1-28),hAmylin(1-7)-^11,18Arg-sCt(8-27)-hAmylin(33-37) [Compound 14]
IC50: 0.1 nM
